In PubChem BioAssay AID1205 (EPA DSSTox, 2008) one finds outcome data, which are given here for 5 compounds.

Active and inactive are the calls of the source.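 How the source made its calls: active means tumour findings in long-term animal cancer tests in more than one sex, species or organ; inactive means no tumour finding and more than one negative test.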

The data set can be described thus: DSSTox (CPDBAS) Carcinogenic Potency Database Summary MultiCellCall Results. The note with it: animal carcinogenicity bioassays, multi-cell call summary. The source says: The Carcinogenic Potency Database (CPDB) is a unique and widely used international resource of the results of over 6500 chronic, long-term animal cancer tests on over 1500 chemical substances. The CPDB provides easy access to the bioassay literature, with qualitative and quantitative analyses of both positive and negative experiments that have been published over the past 50 years in the general literature and by the National Cancer Institute/National Toxicology Program. The CPDB standardizes the diverse literature of cancer bioassays that vary widely in protocol, histopathological examination and nomenclature, and in the published author's choices of what information to provide in their papers. Results are reported in the CPDB for tests in rats, mice, hamsters, dogs, and nonhuman primates, and are based on the most positive result among all experiments for each sex-species. The DSSTox CPDBAS (all species) file incorporates data from the CPDB Summary Tables for the full list of over 1500 chemical substances tested in at least one species. A summary MultiCellCall, based on experimental bioassay results of one or more species, is provided in the DSSTox CPDBAS file (see Source URL) for more than 1150 chemical substances.
Associated TD50 values and tumor site details for the relevant species/sex experiment supporting the overall CPDBAS MultiSiteCall are provided in the full DSSTox CPDBAS file (see Comment) and the corresponding CPDBAS Species Bioassay in PubChem. ActivityScore is computed as follows: multispecies=50, multisex=30, multisite=20, with combination scores computed as sums of these values, e.g. multispecies+multisite=70.

Turning to `O=[N+]([O-])OCC(CO[N+](=O)[O-])(CO[N+](=O)[O-])CO[N+](=O)[O-]`, the outcome was “inactive; multisex inactive; multispecies inactive”.

Take `O=[N+]([O-])c1cc([N+](=O)[O-])cc([N+](=O)[O-])c1`: the outcome is “inactive; multisex inactive”.

For `ClCl`, the outcome is “inactive; multisex inactive; multispecies inactive”.

On to `CN(C)[N+](=O)[O-]`, for which the outcome was “active; multisite active; multisex active”.

With `CN[N+](=O)[O-]`, the outcome was “active; multisex active”.
